Hits are enriched below; roughly 0.94% of the tested compounds scored in any of these assays.
UUG fidelity: alters start codon recognition fidelity in yeast; S. cerevisiae UUG-firefly luciferase reporter, luminescence/redox ratio; activity score, % at 18.7 µM; actives 0.13% (n = 350,000); AID 602363;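 active = replicate mean at a twofold rise or more, about +100% in these data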;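 also: firefly luciferase made from a UUG start codon reports start codon fidelity; reporter light over untreated wells divided by growth signal over untreated wells; some hits fall short of that in this replicate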
ABCB6 inh MLPCN: inhibitors of human ABC transporter ABCB6; Q9NP58; K562-ABCB6 porphyrin accumulation, flow cytometry, 1 h; hits give low values; fluorescence ratio to DMSO, % at 10 µM; 360,000 tested, 0.19% active; AID 602162;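 active means fluorescence ratio to DMSO below 75%, the collection mean minus 3 SD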;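 further: signal is porphyrin accumulated inside mitochondria; 100% equals median channel fluorescence of DMSO control wells; lower ratio means ABCB6 inhibition with less porphyrin fluorescence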
PKA-R2B act: PKA-R2B complex activation; PKA-R2B holoenzyme dissociation, Cy5-IP20 fluorescence polarization; R2B truncated from residue 108, S112A mutant; 0% DMSO only, 100% 113 µM cGMP; P22694+P31323; activation, % at 11.4 µM; 340,000 tested, 0.079% active;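 active means activation above a cutoff set at the mean over all compounds plus 3 SD, cut at about 18% in these data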;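 further: higher means more holoenzyme dissociation and a rise in polarization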
p-CIP stab down: p/CIP protein destabilization | F442A p/CIP-EGFP cells, EGFP fluorescence, 16 h | 290,000 tested, 0.01% active | decrease of EGFP signal, % at 10 µM | Q05BA5;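 active means EGFP signal decrease of at least 30% at 10 µM or well 3 SD below plate mean, unless failing retest; inactive means the rest, including hits failing retest or dose response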
Granule exo inh: lytic granule exocytosis inhibition. AID 651702. TALL-104 LAMP-1 surface exposure, flow cytometry; cells stimulated with thapsigargin and PMA. inhibition, % at 10 µM. 360,000 tested, 0.66% active;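 active means inhibition above about 55%, limit read from the data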
PKA-R1A activ: PKA-R1A complex activation. activation, % at 11.4 µM. P00514+P68181. 340,000 tested, 0.083% active. PKA-R1A dissociation, Cy5-IP20 fluorescence polarization; scaled: DMSO 0%, 113 µM cGMP 100%. AID 504707;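 active means percent activation above the mean of all tested compounds plus 3 SD, cut at about 19% in these data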;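 further: higher means more PKAc released from R1A so a rise in polarization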
Exocytosis CP01: blocks lytic granule exocytosis. 1,500 tested, 11% active. TALL-104 cells, LAMP-1 externalization, flow cytometry; stimulated with PMA plus thapsigargin. AID 651954. inhibition, % at 10 µM. shares compounds with Granule exo inh; in the data active means inhibition above about 60%;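 further: 0% = stimulated vehicle wells and 100% = unstimulated wells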
An asterisk follows results filed as active.

What do the screens show for `OC(CNCCC1C=Nc2ccccc21)Cn1c2ccc(Cl)cc2c2cc(Cl)ccc21` (stereo not drawn)?
UUG fidelity: -9; ABCB6 inh MLPCN: 95; PKA-R2B act: -3; p-CIP stab down: -31; Granule exo inh: 71*; PKA-R1A activ: -5; Exocytosis CP01: 12

What do the screens show for `CC=Cc1ccc2n(c1=O)C[C@H]1[C@H](CO)[C@@H](C(=O)N3CCCCC3)N(Cc3ccccc3OC)[C@@H]21` (mixture of isomers)?
UUG fidelity: 8

Results for O=C(Nc1ccc2oc(-c3ccccc3F)nc2c1)c1ccc2c(c1)OCCO2 ?
UUG fidelity: -1; ABCB6 inh MLPCN: 99; PKA-R2B act: -10; p-CIP stab down: -21; Granule exo inh: 85*; PKA-R1A activ: -6; Exocytosis CP01: 45

Results for CCCCOn1c(C)c(C(=O)OCC)c2c3nonc3ccc21 ?
UUG fidelity: -18; ABCB6 inh MLPCN: 96; PKA-R2B act: 3; Granule exo inh: 87*; PKA-R1A activ: -13; Exocytosis CP01: 36

What do the screens show for `O=C(C[C@@H]1C[C@@H]2c3cc(NC(=O)CC4CC4)ccc3O[C@@H]2[C@H](CO)O1)NCc1ccc2c(c1)OCO2`?
UUG fidelity: -5

What do the screens show for `C#Cc1ccc([C@H]2C=C(C(=O)N3CCOCC3)O[C@@H](OCCCCO)C2)cc1`?
UUG fidelity: -9

What do the screens show for `COc1ccc(OCCOC(=O)c2nc3nccc(C)n3n2)cc1`?
ABCB6 inh MLPCN: 113; PKA-R2B act: 3; p-CIP stab down: 10; Granule exo inh: 58*; PKA-R1A activ: 2; Exocytosis CP01: -4

What do the screens show for `CC(C)C(=O)c1cc2c(cc1NC(=O)c1cccs1)OCCO2`?
UUG fidelity: -15; ABCB6 inh MLPCN: 93; PKA-R2B act: 7; p-CIP stab down: -2; Granule exo inh: 75*; PKA-R1A activ: 1; Exocytosis CP01: -11

How did CC(C)C(=O)c1cc2c(cc1NC(=O)c1ccccc1)OCCO2 do in these assays?
UUG fidelity: 1; ABCB6 inh MLPCN: 99; PKA-R2B act: -9; p-CIP stab down: -2; Granule exo inh: 3; PKA-R1A activ: 2

How did CO[C@H]1CN(C)C(=O)c2ccc(NC(C)=O)cc2OC[C@@H](C)N(C(=O)C2CCCCC2)C[C@@H]1C do in these assays?
UUG fidelity: 2

Results for Cc1noc(C)c1NC(=O)Nc1ccc2c(c1)C(=O)N([C@@H](C)CO)C[C@@H](C)[C@@H](CN(C)Cc1ccc(Cl)c(Cl)c1)OCCCC[C@@H](C)O2 ?
UUG fidelity: 8

Results for COc1ccc(-c2cc(-c3ccccc3)c(C#N)c(S(C)=O)n2)cc1 (stereo not drawn) ?
UUG fidelity: -11; ABCB6 inh MLPCN: 95; PKA-R2B act: 4; p-CIP stab down: 1; Granule exo inh: 64*; PKA-R1A activ: -12; Exocytosis CP01: -4

In the list so far, 2 contain a Cl atom:
What do the screens show for `OC(CNCCC1C=Nc2ccccc21)Cn1c2ccc(Cl)cc2c2cc(Cl)ccc21` (stereo not drawn)?
UUG fidelity: -9; ABCB6 inh MLPCN: 95; PKA-R2B act: -3; p-CIP stab down: -31; Granule exo inh: 71*; PKA-R1A activ: -5; Exocytosis CP01: 12

Results for Cc1noc(C)c1NC(=O)Nc1ccc2c(c1)C(=O)N([C@@H](C)CO)C[C@@H](C)[C@@H](CN(C)Cc1ccc(Cl)c(Cl)c1)OCCCC[C@@H](C)O2 ?
UUG fidelity: 8

(further entries)
Results for CCSc1nc(-c2ccc(OC)cc2)cc(-c2ccccc2)c1C#N ?
UUG fidelity: -14; ABCB6 inh MLPCN: 99; PKA-R2B act: -8; p-CIP stab down: 8; Granule exo inh: -2; PKA-R1A activ: 6

How did CC(C)Nc1nc(NCCOc2ccccc2Cl)c2sc(-c3ccccc3)cc2n1 do in these assays?
UUG fidelity: -13; ABCB6 inh MLPCN: 93; Granule exo inh: 58*; Exocytosis CP01: 37

Results for C[C@@H]1CN([C@@H](C)CO)C(=O)c2cc(-c3cccc(C#N)c3)cnc2O[C@@H]1CN(C)C(=O)C1CC1 ?
UUG fidelity: 0

Results for O=C(Cc1ccc(Cl)cc1)Nc1ccc(CN2CCCCC2)cc1 ?
ABCB6 inh MLPCN: 97; PKA-R2B act: 1; p-CIP stab down: -2; Granule exo inh: 56*; PKA-R1A activ: -1; Exocytosis CP01: -4

How did CC(=O)Nc1ccc(CN2CCCCCC2)cc1 do in these assays?
UUG fidelity: -6; ABCB6 inh MLPCN: 99; PKA-R2B act: 12; p-CIP stab down: 6; Granule exo inh: -5; PKA-R1A activ: -11

How did C[C@@H]1CN([C@@H](C)CO)C(=O)c2cccc(NC(=O)C3CCOCC3)c2O[C@@H]1CN(C)S(=O)(=O)c1ccc(Cl)cc1 do in these assays?
UUG fidelity: 7

Results for CN(C)CCC(=O)N1c2ccccc2Sc2ccc(C(F)(F)F)cc21 ?
UUG fidelity: 2; ABCB6 inh MLPCN: 96; PKA-R2B act: 6; p-CIP stab down: -13; Granule exo inh: 67*; PKA-R1A activ: -10; Exocytosis CP01: -13

How did CCOc1ccccc1N(C(=O)c1ccco1)C(C(=O)NC1CCCC1)c1cccs1 (stereo not drawn) do in these assays?
UUG fidelity: 1; ABCB6 inh MLPCN: 97; PKA-R2B act: -3; p-CIP stab down: -7; Granule exo inh: 60*; PKA-R1A activ: 1; Exocytosis CP01: -14

Results for COc1cccc(C(C(=O)NC2CCCCC2)N(C(=O)c2ccco2)c2ccccc2OC)c1 (stereo not drawn) ?
UUG fidelity: 14; ABCB6 inh MLPCN: 95; PKA-R2B act: 5; p-CIP stab down: 6; Granule exo inh: 89*; PKA-R1A activ: -10; Exocytosis CP01: -7

Results for COc1ccc(C(C(=O)NC2CCCCC2)N(C(=O)c2ccco2)c2ccccc2OC)cc1 (stereo not drawn) ?
UUG fidelity: 7; ABCB6 inh MLPCN: 101; PKA-R2B act: 0; p-CIP stab down: -9; Granule exo inh: 23; PKA-R1A activ: 1

Results for COc1ccc(N(C(=O)c2ccco2)C(C(=O)NC2CCCC2)c2cccs2)c(OC)c1 (stereo not drawn) ?
UUG fidelity: -2; ABCB6 inh MLPCN: 99; PKA-R2B act: -10; p-CIP stab down: 5; Granule exo inh: 34; PKA-R1A activ: -2

What do the screens show for `COc1ccc(S(=O)(=O)Nc2ccc3c(c2)C(=O)N([C@H](C)CO)C[C@@H](C)[C@H](CN(C)C(=O)Cc2ccccc2)OCCCC[C@H](C)O3)cc1`?
UUG fidelity: 0

Results for C[C@H]1CCCCO[C@@H](CN(C)S(=O)(=O)c2cn(C)cn2)[C@@H](C)CN([C@@H](C)CO)C(=O)c2cc(NC(=O)CCC(F)(F)F)ccc2O1 ?
UUG fidelity: 12

Results for COCCNC(=O)Nc1ccc2nc(-c3cccs3)c(-c3cccs3)nc2c1 ?
UUG fidelity: -14; ABCB6 inh MLPCN: 97; PKA-R2B act: 8; p-CIP stab down: 4; Granule exo inh: 49; PKA-R1A activ: -6

Screens deposited in PubChem by several laboratories.
